In patent publication US20240084280A1 (NATIONAL CHENG KUNG UNIVERSITY, published 2024):
Numbering of substitutions follows the chain as printed. Names may count otherwise.

B1: TNK-(PA)3-RR (other)
chain: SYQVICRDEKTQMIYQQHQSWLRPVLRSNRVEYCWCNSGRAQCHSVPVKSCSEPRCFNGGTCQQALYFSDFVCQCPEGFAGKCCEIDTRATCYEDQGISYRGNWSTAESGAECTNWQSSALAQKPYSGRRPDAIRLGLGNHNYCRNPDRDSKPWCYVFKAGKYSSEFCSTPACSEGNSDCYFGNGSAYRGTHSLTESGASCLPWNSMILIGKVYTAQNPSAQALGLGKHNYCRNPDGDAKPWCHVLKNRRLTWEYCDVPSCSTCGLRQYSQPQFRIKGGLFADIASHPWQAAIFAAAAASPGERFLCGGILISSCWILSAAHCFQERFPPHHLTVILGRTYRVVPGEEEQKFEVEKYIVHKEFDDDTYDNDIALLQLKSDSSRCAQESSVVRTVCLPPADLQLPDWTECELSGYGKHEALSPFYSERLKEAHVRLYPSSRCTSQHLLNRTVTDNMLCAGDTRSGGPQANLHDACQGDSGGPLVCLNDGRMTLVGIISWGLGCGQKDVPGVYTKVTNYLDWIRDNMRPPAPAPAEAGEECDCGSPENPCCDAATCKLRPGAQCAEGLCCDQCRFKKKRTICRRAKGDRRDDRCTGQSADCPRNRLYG
B2: TNK-G9-RR (other)
chain: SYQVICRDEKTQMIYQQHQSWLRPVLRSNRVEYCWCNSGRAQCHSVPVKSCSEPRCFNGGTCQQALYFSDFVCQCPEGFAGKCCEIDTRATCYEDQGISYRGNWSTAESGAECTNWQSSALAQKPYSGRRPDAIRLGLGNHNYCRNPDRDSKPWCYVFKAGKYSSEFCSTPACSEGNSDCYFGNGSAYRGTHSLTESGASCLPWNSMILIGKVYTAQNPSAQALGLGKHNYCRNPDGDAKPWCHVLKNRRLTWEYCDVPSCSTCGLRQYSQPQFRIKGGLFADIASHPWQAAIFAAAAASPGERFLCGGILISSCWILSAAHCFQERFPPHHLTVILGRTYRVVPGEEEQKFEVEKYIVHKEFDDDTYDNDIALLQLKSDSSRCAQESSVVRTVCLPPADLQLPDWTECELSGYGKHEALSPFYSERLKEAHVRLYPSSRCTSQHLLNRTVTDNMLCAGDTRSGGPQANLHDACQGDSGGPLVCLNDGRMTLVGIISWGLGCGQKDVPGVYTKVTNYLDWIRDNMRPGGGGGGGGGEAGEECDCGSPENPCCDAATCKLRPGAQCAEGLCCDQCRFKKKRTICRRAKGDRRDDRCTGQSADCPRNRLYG
B3: TNK-EA3K(G4S)2-RR (other)
chain: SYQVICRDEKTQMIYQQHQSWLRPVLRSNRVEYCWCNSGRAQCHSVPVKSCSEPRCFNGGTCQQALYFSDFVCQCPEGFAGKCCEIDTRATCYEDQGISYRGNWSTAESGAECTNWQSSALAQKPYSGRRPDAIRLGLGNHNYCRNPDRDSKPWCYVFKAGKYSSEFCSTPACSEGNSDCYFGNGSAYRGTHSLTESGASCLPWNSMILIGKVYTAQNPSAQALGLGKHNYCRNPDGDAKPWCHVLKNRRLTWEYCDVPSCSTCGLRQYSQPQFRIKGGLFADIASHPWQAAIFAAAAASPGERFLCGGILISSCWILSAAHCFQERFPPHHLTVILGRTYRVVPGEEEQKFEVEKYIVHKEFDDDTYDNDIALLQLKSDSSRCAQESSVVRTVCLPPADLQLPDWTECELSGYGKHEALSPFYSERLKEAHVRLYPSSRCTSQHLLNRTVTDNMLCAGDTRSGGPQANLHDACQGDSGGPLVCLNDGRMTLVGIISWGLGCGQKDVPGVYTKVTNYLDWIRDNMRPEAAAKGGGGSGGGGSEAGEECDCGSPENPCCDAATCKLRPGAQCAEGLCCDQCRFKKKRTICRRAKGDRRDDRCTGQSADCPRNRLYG
B4: TNK-(G4S)3-RR (other)
chain: B3 chain with E528G, A529G, A530G, A531G, K532S
B5: TNK-(EA3K)3-RR (other)
chain: B3 chain with G533E, G534A, G535A, G536A, S537K, G538E, G539A, G540A, G541A, S542K
B6: TNK-(PA)5-RR (other)
chain: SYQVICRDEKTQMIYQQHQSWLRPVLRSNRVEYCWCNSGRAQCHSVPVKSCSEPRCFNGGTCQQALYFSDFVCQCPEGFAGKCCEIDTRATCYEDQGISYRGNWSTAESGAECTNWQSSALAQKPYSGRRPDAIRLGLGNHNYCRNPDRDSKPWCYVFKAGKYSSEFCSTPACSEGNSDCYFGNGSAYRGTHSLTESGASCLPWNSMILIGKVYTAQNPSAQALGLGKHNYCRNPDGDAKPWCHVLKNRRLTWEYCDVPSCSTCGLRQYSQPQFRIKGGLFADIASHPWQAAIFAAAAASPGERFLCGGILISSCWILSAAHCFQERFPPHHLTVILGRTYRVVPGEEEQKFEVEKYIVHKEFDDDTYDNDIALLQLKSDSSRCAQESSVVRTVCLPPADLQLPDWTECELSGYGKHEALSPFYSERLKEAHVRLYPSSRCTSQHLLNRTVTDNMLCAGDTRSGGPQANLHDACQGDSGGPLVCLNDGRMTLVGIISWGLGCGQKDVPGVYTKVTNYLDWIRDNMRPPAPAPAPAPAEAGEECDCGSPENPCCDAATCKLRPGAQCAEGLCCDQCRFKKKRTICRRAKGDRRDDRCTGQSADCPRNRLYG
B7: RR-(PA)5-TNK (other)
chain: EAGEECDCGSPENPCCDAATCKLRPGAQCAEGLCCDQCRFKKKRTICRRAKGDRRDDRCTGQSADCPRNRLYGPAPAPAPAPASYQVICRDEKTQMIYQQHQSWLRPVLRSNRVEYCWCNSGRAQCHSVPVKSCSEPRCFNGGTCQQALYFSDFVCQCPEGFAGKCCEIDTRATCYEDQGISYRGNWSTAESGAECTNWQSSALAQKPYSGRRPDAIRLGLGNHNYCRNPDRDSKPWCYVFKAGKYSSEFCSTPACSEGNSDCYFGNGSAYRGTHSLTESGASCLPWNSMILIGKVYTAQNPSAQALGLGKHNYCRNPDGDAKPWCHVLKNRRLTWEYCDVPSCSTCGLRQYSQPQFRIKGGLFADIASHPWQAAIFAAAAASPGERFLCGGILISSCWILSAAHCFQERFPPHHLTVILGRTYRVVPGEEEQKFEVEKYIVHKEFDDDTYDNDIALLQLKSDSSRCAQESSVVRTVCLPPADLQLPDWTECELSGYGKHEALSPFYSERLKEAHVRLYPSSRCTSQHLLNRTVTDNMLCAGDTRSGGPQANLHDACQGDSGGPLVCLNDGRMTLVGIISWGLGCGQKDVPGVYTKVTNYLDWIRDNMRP
B8: TNK-(PA)7-RR (other)
chain: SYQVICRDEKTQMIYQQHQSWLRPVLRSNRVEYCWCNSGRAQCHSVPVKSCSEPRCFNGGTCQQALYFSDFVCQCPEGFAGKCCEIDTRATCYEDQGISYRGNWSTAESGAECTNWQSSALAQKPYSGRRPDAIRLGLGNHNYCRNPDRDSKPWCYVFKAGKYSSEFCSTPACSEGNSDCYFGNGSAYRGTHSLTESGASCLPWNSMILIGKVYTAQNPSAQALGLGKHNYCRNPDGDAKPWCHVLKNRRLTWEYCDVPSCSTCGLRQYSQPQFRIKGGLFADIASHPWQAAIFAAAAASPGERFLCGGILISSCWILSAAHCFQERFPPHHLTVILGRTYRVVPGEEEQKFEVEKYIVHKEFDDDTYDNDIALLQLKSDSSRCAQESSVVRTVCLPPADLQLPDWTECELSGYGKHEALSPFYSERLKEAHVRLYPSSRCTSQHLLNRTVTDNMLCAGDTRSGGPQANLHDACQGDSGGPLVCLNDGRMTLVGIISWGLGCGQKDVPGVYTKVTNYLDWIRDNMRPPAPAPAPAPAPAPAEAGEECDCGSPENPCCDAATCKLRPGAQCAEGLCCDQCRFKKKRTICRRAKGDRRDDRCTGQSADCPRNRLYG

Target: integrin alpha(IIb)beta(3) (UniProt P08514 32-1039; P05106 27-788)
Test: cell-based or functional assay

Binder | IC50: platelet aggregation (ADP-induced, platelet-rich plasma)
B1 | 506 nM
B2 | 567 nM
B3 | 276 nM
B4 | 249 nM
B5 | 458 nM
B6 | 380 nM
B7 | 1370 nM
B8 | 347 nM
